Experimental findings from patent publication US20190350938A1 (BROAD INSTITUTE, published 2019) are described below.

The target in this assay is P2D SLC16A11^REF-V5 (human) (UniProt Q8NCK7). Nature of the assay: anti-V5 IP of P2D SLC16A11REF-V5 from HEK293T lysate, iTRAQ quantitative MS; enrichment vs empty vector control IP.

Regarding ATP1A1 (from UniProt P05023 1-1023), the BA log fold change (log fold change) was 1.1.
